Experimental data published in patent US20110201016A1, “METHOD FOR DETECTING MODULATOR FOR REGULATING ACTIVITY OF CELLULAR COMPONENT IN CELL” (MEDISCOV INC., priority 2010, published 2011).

By UniProt entry, the sequences of proteins in these tests, tags left out. Residues count along the entry.
UniProt P10721, 545-976: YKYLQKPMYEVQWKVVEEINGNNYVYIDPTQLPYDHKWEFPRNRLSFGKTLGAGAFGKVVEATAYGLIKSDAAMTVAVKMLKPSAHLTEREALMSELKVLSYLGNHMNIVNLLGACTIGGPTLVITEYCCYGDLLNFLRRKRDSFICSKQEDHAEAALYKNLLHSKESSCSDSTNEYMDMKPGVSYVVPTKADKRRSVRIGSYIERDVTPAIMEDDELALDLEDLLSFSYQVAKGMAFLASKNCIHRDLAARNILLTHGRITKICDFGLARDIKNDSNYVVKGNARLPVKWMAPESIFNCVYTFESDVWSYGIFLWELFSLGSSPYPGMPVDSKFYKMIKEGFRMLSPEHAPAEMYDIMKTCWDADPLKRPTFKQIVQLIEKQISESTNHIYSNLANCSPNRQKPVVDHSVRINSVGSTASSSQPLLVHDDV

Molecular target: KIT (Homo sapiens, UniProt P10721)
Experiment: Binding of dasatinib-magnetic substance to EGFP-labelled kinase in cells (magnetic pattern co-localization)
Conditions: KIT-EGFP (amino acids 545-976) in HeLa cells; dasatinib-biotin coated on streptavidin magnetic substance; magnetic field

Compound: Cc1nc(Nc2ncc(C(=O)Nc3c(C)cccc3Cl)s2)cc(N2CCN(CCO)CC2)n1 [dasatinib, N-(2-chloro-6-methyl-phenyl)-2-(6-(4-(2-hydroxyethyl)-piperazin-1-yl)-2-methylpyrimidin-4-ylamino)thiazole-5-carboxamide]
- fluorescent pattern of kinase-EGFP overlapped with magnetization pattern (binding): showed the fluorescent patterns aligned in a magnetized direction
